Source: PubChem BioAssay
Rango complex inh: qHTS Assay for Inhibitors of Rango (Ran-regulated importin-beta cargo) - Importin beta complex formation; Importin subunit beta-1 (Homo sapiens), Q14974; Rango CFP/YFP FRET sensor + importin beta, 45 min; Potency, µM (series often up to 92.2 µM); actives 0.031% (n = 340,000); AID 540263, 2011; further: nearly all actives have a fitted effect of over 15% in size
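Inhibition scored from the CFP 486 nm/YFP 530 nm FRET ratio 45 min after adding 0.125 microM importin beta to 50 nM Rango biosensor preincubated 5 min with compound (room temperature, PBS with DTT, Tween-20, BSA). No-importin wells as positive control.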
Rango release inh: qHTS Assay for Inhibitors of RanGTP induced Rango (Ran-regulated importin-beta cargo) - Importin beta complex dissociation. Snurportin-1 (Homo sapiens) + GTP-binding nuclear protein Ran (Homo sapiens) + Importin …. Biochemical FRET Rango-importin beta, RanGTP-induced dissociation. Potency, µM (doses to about 46.1 µM). actives 0.071% (n = 340,000). AID 540253, 2011; further: nearly all actives have a fitted effect of over 45% in size
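Recombinant Rango FRET biosensor (EYFP–snurportin 1 IBB–cerulean CFP10) at 0.1 uM premixed with 0.25 uM importin beta in PBS, 1 mM DTT, 0.02% Tween-20, 0.1% BSA. Compound added 5 min; RanGTP-RCC1 (0.6 uM Ran, 2 mM GTP, 0.2 uM RCC1) then triggers release, read at 45 min.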
LMNA splice mod: qHTS Assay for Modulators of Lamin A Splicing; AID 1487, 2009; actives 0.01% (n = 200,000); Potency, µM (series often up to 46.1 µM), actives largely listed as inhibitors; HeLa LMNA splicing GFP/RFP minigene ratio, 48 h; active means well fitted inhibition curve with a large enough effect in the signal ratio, with a control signal flat, not every such curve was filed as active; inconclusive means small, poorly fitted or top-dose-only effect, or effect the other way, or a change in a side signal; the % refers to the signal ratio
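S3 HeLa cells stably expressing lamin A-EGFP splicing minigene plus DsRed2, 600 cells/well, 48 h compound exposure at 37C. Laser-scanning cytometry; analysed as GFP (500-530 nm)/RFP (575-640 nm) total intensity ratio; 0.5% DMSO vehicle.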
Numbers stand for hits; . = inactive; ? = inconclusive; / = not tested or not shown; [ ] = remark or other dose. In the library only some 0.1% were active in any assay of this set; here they are far more common. Unless noted, the call rests on the fitted dose curve.

Sequences of proteins named here, by UniProt entry; tags and fusion partners are left off.
Importin subunit beta-1 (Homo sapiens), Q14974, UniProt Q14974, whole entry, looked up: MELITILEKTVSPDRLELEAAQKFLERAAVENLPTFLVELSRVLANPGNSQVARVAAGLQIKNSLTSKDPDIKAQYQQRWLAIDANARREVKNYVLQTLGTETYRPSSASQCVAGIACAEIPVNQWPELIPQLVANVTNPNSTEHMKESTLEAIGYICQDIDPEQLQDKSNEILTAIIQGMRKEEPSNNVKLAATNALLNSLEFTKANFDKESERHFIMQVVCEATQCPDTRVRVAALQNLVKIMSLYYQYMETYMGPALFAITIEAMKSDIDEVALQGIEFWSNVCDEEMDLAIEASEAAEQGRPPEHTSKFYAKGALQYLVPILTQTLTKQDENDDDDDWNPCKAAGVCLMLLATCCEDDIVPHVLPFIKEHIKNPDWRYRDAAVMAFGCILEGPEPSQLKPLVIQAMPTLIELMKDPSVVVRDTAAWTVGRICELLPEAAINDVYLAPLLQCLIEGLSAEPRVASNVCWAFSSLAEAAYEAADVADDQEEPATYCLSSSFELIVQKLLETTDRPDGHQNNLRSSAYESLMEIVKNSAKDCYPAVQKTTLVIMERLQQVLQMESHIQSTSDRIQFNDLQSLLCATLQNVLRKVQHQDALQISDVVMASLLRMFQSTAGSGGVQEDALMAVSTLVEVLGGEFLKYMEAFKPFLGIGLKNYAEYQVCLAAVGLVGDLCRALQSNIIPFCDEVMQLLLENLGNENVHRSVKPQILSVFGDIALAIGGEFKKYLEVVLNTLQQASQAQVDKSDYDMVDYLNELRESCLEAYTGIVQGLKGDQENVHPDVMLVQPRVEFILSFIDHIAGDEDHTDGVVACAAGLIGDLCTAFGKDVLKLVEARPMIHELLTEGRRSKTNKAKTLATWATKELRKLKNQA

SMILES	Rango complex inh	Rango release inh	LMNA splice mod
Cc1cc(C)c2nc(NNC(=O)c3ccc(S(=O)(=O)N4CC(C)CC(C)C4)cc3)sc2c1 (configuration not stated)	.	.	?
CCCn1c(=N)c(C#N)cc2c(=O)n3cccc(C)c3nc21	/	/	.
Cc1cccn2c(=O)c3cc(C#N)c(=N)n(CCN4CCOCC4)c3nc12	?	8.2µM	.
CCOc1ccc2c(c1)C(C)=CC(C)(C)N2C(=O)Nc1ccccc1F	.	.	.
CCNC(=O)N1c2ccc(OCC)cc2C(C)=CC1(C)C	?	2.1µM	.
C#CCn1cc(Cl)cc(C(=O)Nc2ccccc2)c1=O	?	.	/
Nc1nc(-c2ccccc2)cn1/N=C/c1ccccc1	.	.	/
Nc1nc(-c2ccccc2)cn1N	?	21µM	.
CCN1/C(=C/c2ccc3ccccc3[n+]2CC)C=Cc2ccccc21	?	.	?
CCCCN1/C(=C/c2ccc3ccccc3[n+]2CC)Sc2ccccc21	46µM	.	?
Cc1cc(N2CCCC2)nc2ccc(NC(=S)NCCCN3CCC(C)CC3)cc12	.	15µM	?
CCCN1CCN(CCCNC(=S)Nc2ccc3nc(N4CCN(CC)CC4)cc(C)c3c2)CC1	.	.	/
CC1(C)CC(NS(=O)(=O)c2cccc3ccccc23)CC(C)(C)N1	.	.	/
Cc1ccc(S(=O)(=O)NNC(=O)c2ccccc2O)cc1	.	.	?
Cc1ccc(S(=O)(=O)NNC(=O)c2csnn2)cc1	52µM	?	.
CCOC(=O)C1=CN(Cc2ccco2)S(=O)(=O)N(C)C1c1cccc(OC)c1 (configuration not stated)	.	.	/
CN(C)CCC(c1ccc(Br)cc1)c1ccccn1 (configuration not stated)	.	.	.
NS(=O)(=O)c1cc2c(cc1Cl)NC(CC1CCCC1)NS2(=O)=O (configuration not stated)	58µM	.	/
CCC1Nc2cc(Cl)c(S(N)(=O)=O)cc2S(=O)(=O)N1 (configuration not stated)	/	/	.
Cc1cc(N2CCOCC2)nc2ccccc12	.	.	.
Cc1cc(N2CCOCC2)nc2cc(O)ccc12	?	16µM	.
Cc1cccc2cc(C#N)c(N3CCC(O)CC3)nc12	?	?	.
Cc1cccc2cc(C#N)c(N3CCOCC3)nc12	?	18µM	/
CC(=O)c1cccc(NC(=O)CCCNC(=O)c2ccc(Cl)cc2)c1	?	.	/
NS(=O)(=O)c1cccc(NC(=O)CCCNC(=O)c2ccc(Cl)cc2)c1	16µM	.	/
SMILES	Rango complex inh	Rango release inh	LMNA splice mod
Cc1cccc(N2CCN(S(=O)(=O)c3ccc4c(c3)OCCO4)CC2)c1C	?	18µM[inhibitor]	/
Cc1cccc(N2CCN(S(=O)(=O)c3ccc(S(=O)(=O)N4CCCC4)cc3)CC2)c1C	.	.	.
O=C(O)c1cnn(-c2nc(-c3ccc(F)cc3)cs2)c1C(F)(F)F	.	.	.
O=C(COc1ccccc1)N[C@@H]1c2ccccc2CC[C@H]1OCc1ccccc1	.	.	/
CCn1c(SC(C)C(=O)Nc2nccs2)nnc1-c1ccncc1 (configuration not stated)	.	.	/
Cc1ccc(/C=C/C(=O)c2ccccc(=O)c2O)cc1C	?	8.2µM	?
O=C(/C=C/c1ccccc1)c1cc(Br)ccc(=O)c1O	.	.	?
COC(=O)C1=C(C(=O)OC)[C@@H]2N(C)c3ccc(OC)cc3[C@@]23C[C@@H](C(=O)OC)N(C(=O)NCCBr)C3=N1	?	.	/
Oc1cc(Nc2cccnc2)cc2cccnc12	.	.	/
Oc1cc(Nc2ccncc2)cc2cccnc12	41µM	?	/
O=C1Nc2cc(C(=O)N3CCN(c4ccccn4)CC3)ccc2S/C1=C\c1ccccc1	.	.	/
COc1ccccc1C(=O)NCCNc1nc2cc(C)cc(C)c2cc1C#N	?	12µM	/
Cc1cc(C)c2cc(C#N)c(NCCOC(=O)c3ccccc3C)nc2c1	.	.	.
Cc1nc(-c2ccc(S(=O)(=O)Nc3cc(S(=O)(=O)N(C)C)ccc3C)s2)cs1	.	.	/
Cc1cc(C)c(S(=O)(=O)Nc2cccc3nsnc23)c(C)c1	.	.	.
O=S(=O)(Nc1cccc2nsnc12)c1ccccc1	29µM	.	.
CCOC(=O)C(O)(CC(=O)c1ccc(Cl)cc1)C(=O)OCC	.	.	/
CNc1sc(C(=O)c2cccs2)c(N)c1-c1nc2ccccc2s1	?	10µM	?
CNc1sc(C(=O)c2ccc(F)cc2)c(N)c1-c1nc2ccccc2s1	?	.	?
Cc1cc(C)cc(Oc2coc3cc(O)ccc3c2=O)c1	.	.	/
Cc1ccc(S(=O)(=O)CCc2nnc(NC(=O)C3CCCCC3)s2)cc1	.	.	/
NC(=O)CC(NC(=O)Cc1cccc2ccccc12)c1ccc(NC2CCN(Cc3ccccc3)CC2)c([N+](=O)[O-])c1 (configuration not stated)	.	.	/
NC(=O)CC(NC(=O)Cc1ccc(Br)cc1)c1ccc(NC2CCN(Cc3ccccc3)CC2)c([N+](=O)[O-])c1 (configuration not stated)	52µM	.	/
Nc1c(N2CCN(c3ccccc3)CC2)c2ccccc2oc1=O	.	.	?
CCCCC1=CC2=CC(=O)C(C)(OC(=O)CC)C(=O)C2=CN1CC(C)C (configuration not stated)	?	?	.[9.22 µM]
SMILES	Rango complex inh	Rango release inh	LMNA splice mod
CCCCC1=CC2=CC(=O)C(C)(OC(=O)CC)C(=O)C2=CN1Cc1ccc(OC)cc1 (configuration not stated)	?	8.2µM	.[9.22 µM]
C(=C\c1ccc2ccccc2n1)/c1ccccc1	.	.	?
Oc1ccc(/C=C/c2ccc3ccccc3n2)cc1	?	18µM	13µM
C[C@@H]1CN([C@@H](C)CO)C(=O)Cc2cc(NC(=O)Nc3ccc4c(c3)OCO4)ccc2O[C@@H]1CN(C)C(=O)NC1CCCCC1	.	.	/
COc1ccc2[nH]c(=O)cc(C(=O)O)c2c1	.	.	.
COc1ccc2[nH]c3c4c(ccc3c2c1)C(=O)C=CC4=O	?	4.6µM	/
COc1cc(C(=O)Nc2cccnc2)cc(OC)c1OC	.	.	/
COC(=O)[C@]1(CC(C)C)N[C@H](c2ccc(-c3ccc(F)cc3)cc2)[C@@H]2C(=O)N(C)C(=O)[C@@H]21	.	.	/
COc1ccc2c(C)cc(SCC(=O)NC3CCCCC3)nc2c1	.	.	/
COc1ccc2c(C)cc(SCC(=O)N3CCOCC3)nc2c1	33µM	.	.
Cn1nc(C(=O)NCCc2ccc(Cl)cc2)c2c1-c1ccccc1S(=O)(=O)C2	.	.	/
COc1ccc(CNC(=O)c2cc(C(C)=O)c[nH]2)cc1	.	.	/
COC(=O)C1=NN(c2ccccc2OC)C2C(=O)N(c3ccccc3OC)C(=O)C12 (configuration not stated)	?	.	.
COC(=O)C1=NN(c2cccc3ccccc23)C2C(=O)N(c3ccccc3OC)C(=O)C12 (configuration not stated)	?	12µM	/
COC(=O)c1cc(C(=O)Nc2nc3ccccc3[nH]2)cc([N+](=O)[O-])c1	.	.	/
